Article PMC3846293 (Bioorganic & medicinal chemistry letters, 2013)

Amino acid sequences for entries named in this document (tags omitted). Residues count along the entry.
UniProt P31424, 21-1203: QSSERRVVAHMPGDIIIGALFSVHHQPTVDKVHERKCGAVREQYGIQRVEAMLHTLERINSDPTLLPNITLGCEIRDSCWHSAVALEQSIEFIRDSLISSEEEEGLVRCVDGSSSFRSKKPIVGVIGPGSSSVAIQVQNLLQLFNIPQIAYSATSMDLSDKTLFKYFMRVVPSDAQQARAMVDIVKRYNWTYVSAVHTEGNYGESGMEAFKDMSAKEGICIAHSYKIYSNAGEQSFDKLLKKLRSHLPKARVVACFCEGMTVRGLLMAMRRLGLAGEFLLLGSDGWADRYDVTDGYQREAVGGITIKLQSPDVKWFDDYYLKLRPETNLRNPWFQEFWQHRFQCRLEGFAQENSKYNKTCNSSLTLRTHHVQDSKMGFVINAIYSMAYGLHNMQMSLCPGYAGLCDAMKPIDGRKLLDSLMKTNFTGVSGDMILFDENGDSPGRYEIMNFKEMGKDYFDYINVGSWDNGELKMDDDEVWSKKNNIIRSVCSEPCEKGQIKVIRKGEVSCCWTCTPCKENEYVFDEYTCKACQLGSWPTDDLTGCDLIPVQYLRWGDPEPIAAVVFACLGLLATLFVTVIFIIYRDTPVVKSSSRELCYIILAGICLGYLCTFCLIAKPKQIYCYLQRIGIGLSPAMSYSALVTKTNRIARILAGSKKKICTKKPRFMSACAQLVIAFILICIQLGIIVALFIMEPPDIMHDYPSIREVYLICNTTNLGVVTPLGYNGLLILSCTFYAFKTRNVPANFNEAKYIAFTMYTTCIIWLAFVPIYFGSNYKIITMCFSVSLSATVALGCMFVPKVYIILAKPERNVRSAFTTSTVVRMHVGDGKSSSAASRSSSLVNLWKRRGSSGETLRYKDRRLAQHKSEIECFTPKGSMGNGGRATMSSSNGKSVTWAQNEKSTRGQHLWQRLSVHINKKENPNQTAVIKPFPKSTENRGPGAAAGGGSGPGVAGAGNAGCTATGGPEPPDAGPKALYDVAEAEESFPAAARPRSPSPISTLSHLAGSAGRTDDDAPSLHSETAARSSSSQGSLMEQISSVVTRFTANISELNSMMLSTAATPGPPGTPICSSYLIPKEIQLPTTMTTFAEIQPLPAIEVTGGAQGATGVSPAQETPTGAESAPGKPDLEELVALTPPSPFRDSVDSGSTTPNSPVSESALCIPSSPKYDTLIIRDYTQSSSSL

Biological target: rat mGlu5 (Rattus norvegicus, UniProt P31424)
Experiment: Calcium mobilization mGlu5 assay
Format: cell-based
Conditions: for mGlu5 activity in words: highest concentration tested 30 μM

mGlu5 activity in words	SMILES	other results
only weakly active	Cc1cc(NC(=O)c2cccc(Oc3cccnc3)c2)ccn1 [Compound 13]	
inactive	Cc1nc(NC(=O)c2cccc(Oc3cccnc3)c2)nn1C [Compound 21]	IC50 (read-out: mGlu5 IC50, HEK293A cells expressing rat mGlu5, EC80 glutamate): > 30 µM
	Cc1nc(NC(=O)c2cc(Cl)cc(Oc3cncnc3)c2)ccc1F [Compound 72]	fold less potent than 55 (mGlu5 potency vs 55): ≤ 3 fold
	Cc1cc(Oc2cncnc2)cc(C(=O)Nc2ccc(F)cn2)c1 [Compound 29]	fold more potent than trifluoromethyl analog 29 (mGlu5 potency vs trifluoromethyl analog): more than 250 fold
	Cc1nc(NC(=O)c2cc(F)cc(Oc3cncnc3)c2)sc1F [Compound 34]	fold loss of potency compared to 24 (mGlu5 potency vs 24): 2 fold
inactive	O=C(Nc1nc(C(F)(F)F)cs1)c1cccc(Oc2cccnc2)c1 [Compound 20]	
inactive	Cc1nsc(NC(=O)c2cccc(Oc3cccnc3)c2)n1 [Compound 19]	
